Reference: patent publication US9221808B2, “Pyridylthiazole-based ureas as inhibitors of Rho associated protein kinase (ROCK) and methods of use” (H. Lee Moffitt Cancer Center and Research Institute, Inc., priority 2010, dated 2015)

Chains of the proteins cited; added tags and fusions are not shown.
UniProt Q13464, whole entry, species assumed: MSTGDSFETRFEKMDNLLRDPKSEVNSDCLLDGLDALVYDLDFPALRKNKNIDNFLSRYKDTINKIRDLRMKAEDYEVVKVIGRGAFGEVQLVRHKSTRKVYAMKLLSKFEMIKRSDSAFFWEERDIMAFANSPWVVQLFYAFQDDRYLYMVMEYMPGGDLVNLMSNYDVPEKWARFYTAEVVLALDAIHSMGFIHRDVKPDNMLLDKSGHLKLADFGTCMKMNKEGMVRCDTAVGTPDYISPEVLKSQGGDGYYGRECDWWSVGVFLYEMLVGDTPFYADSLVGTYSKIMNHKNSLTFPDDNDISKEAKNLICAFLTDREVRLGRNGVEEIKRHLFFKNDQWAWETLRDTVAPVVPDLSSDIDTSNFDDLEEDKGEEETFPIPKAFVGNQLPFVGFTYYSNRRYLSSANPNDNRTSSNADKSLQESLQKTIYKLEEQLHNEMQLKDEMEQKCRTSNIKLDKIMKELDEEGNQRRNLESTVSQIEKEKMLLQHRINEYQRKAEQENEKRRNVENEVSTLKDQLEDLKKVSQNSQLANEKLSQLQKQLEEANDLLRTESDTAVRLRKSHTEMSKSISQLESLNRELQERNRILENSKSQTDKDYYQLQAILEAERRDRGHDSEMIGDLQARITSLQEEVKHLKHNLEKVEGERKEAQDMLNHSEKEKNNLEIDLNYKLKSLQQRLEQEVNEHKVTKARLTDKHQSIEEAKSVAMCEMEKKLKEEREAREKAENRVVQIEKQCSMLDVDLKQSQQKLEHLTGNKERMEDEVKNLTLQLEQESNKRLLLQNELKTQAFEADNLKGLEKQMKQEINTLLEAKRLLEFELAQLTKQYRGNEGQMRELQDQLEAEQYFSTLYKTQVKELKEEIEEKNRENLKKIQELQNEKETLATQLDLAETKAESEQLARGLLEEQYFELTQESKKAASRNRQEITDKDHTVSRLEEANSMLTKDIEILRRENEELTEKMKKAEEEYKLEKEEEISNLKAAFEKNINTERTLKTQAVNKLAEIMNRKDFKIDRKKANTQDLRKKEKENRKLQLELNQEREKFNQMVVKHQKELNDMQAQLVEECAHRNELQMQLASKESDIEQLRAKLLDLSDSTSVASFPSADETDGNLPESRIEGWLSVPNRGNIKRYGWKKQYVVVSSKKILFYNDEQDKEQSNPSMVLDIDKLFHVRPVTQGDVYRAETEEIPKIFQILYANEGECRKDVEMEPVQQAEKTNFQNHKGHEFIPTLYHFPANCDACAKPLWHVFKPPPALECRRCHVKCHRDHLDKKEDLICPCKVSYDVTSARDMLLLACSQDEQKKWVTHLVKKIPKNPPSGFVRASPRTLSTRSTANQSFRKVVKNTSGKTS
UniProt O75116, whole entry, species assumed: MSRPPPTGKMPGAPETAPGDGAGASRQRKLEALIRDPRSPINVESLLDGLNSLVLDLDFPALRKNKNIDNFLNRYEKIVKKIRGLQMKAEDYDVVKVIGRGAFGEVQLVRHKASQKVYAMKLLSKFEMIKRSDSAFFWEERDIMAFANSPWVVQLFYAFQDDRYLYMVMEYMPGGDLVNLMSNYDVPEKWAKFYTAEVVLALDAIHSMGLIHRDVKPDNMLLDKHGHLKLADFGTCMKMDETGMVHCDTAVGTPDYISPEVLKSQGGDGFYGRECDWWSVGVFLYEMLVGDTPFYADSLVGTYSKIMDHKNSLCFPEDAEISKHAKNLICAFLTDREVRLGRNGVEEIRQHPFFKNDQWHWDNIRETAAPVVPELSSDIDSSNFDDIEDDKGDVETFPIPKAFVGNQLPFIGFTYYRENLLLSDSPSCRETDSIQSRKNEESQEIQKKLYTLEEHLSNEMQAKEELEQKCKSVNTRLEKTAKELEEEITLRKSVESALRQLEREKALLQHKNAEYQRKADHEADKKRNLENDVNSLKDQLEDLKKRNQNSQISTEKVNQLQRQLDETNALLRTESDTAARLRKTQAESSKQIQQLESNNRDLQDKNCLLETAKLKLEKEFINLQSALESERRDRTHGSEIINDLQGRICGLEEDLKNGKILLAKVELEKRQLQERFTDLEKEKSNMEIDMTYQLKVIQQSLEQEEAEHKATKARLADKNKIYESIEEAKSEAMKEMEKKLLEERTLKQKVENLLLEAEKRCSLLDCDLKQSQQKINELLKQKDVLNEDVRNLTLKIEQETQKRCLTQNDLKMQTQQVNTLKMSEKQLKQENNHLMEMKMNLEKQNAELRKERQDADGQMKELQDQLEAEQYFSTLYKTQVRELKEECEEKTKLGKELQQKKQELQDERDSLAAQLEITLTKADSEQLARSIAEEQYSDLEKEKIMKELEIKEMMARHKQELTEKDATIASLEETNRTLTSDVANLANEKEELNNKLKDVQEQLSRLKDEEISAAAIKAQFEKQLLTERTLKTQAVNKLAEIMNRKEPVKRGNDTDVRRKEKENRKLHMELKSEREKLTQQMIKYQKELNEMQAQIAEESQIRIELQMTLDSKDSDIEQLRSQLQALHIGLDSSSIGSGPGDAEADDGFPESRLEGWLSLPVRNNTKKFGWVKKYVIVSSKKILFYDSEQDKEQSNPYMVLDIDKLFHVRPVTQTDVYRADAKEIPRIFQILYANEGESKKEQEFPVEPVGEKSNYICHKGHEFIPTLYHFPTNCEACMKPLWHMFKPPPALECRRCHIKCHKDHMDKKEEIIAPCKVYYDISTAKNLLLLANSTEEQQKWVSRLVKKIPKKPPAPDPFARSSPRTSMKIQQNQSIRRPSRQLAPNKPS

Assays:
[1] = target: ROCK1 (Homo sapiens (Human), UniProt Q13464); assay: FRET-based Z'-Lyte kinase assay, ROCK1; format: biochemical;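 note: kinase phosphorylates a coumarin/fluorescein-labelled FRET peptide, then a protease cleaves unphosphorylated peptide, progress read as donor to acceptor emission ratio after 400 nm excitation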
[2] = target: ROCK2 (Homo sapiens (Human), UniProt O75116); assay: FRET-based Z'-Lyte kinase assay, ROCK2; format: biochemical; conditions: read-out: IC50 ± SD (μM) ROCK2;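 note: kinase phosphorylates a coumarin/fluorescein FRET peptide, then a protease cleaves unphosphorylated peptide, read as donor/acceptor emission ratio after 400 nm excitation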

Q: O=C(Nc1nc(-c2ccncc2)cs1)NC(CO)c1ccccc1 (stereo not drawn) [Compound 1ar, 1-(2-Hydroxy-1-phenylethyl)-3-(4-(pyridin-4-yl)thiazol-2-yl)urea] was tested. Which IC50 ([1]; read-out: ROCK1 IC50) did it give?
A: 0.06 µM

Q: What about the IC50 [2] of the same molecule?
A: 0.03 ± 0.02 µM

Q: For O=C(Nc1nc(-c2ccncc2)cs1)N[C@@H](CO)c1ccccc1 [Compound 1as, (R)-1-(2-Hydroxy-1-phenylethyl)-3-(4-(pyridin-4-yl)thiazol-2-yl)urea], which IC50 ([1]; read-out: IC50 ± SD (μM) ROCK1) is on record?
A: 5.2 µM

Q: What about the IC50 [2] of the same molecule?
A: 2.5 ± 1 µM

Q: Which results are given for O=C(Nc1nc(-c2ccncc2)cs1)N[C@H](CO)c1ccccc1 [Compound 1at, (S)-1-(2-Hydroxy-1-phenylethyl)-3-(4-(pyridin-4-yl)thiazol-2-yl)urea]?
A: IC50 ([1]; read-out: ROCK1 IC50): 0.03 µM; IC50 [2]: 0.03 ± 0.01 µM

Like-named read-outs stand apart in the source and are kept apart here.
